Several values for one entry are separate records, joined by “and”; a condition that tells them apart may be missing. Identical values can stand only once.
How the values were obtained:
[1] = biological target: reduced-folate carrier (RFC) (Homo sapiens, UniProt P41440); conditions: read-out: Km for the RFC
[2] = test system: platinum-resistant epithelial ovarian carcinoma; conditions: in vivo
HUVECs [3] = test system: HUVECs
HUVECs [4] = test system: HUVECs; remark: listed apart in the source
H69 SCLC xenografts = conditions: mouse, in vivo
[5] = test system: PC-3 human prostate tumours; conditions: mouse, in vivo
breast cancer cell lines [6] = test system: breast cancer cell lines
[7] = in vivo; cited from earlier work
breast cancer cell lines [8] = conditions: cited from earlier work
[9] = test system: LTR Ras3, Melan-a, MT1.2 and B16F10 cell lines
metastatic melanoma (MM) = conditions: in vivo

Protein sequences, listed by entry. Tags and fused reporters are not part of them. Lines headed by an entry give the natural chain unless they say otherwise; changes in a name come on top.
UniProt P41440: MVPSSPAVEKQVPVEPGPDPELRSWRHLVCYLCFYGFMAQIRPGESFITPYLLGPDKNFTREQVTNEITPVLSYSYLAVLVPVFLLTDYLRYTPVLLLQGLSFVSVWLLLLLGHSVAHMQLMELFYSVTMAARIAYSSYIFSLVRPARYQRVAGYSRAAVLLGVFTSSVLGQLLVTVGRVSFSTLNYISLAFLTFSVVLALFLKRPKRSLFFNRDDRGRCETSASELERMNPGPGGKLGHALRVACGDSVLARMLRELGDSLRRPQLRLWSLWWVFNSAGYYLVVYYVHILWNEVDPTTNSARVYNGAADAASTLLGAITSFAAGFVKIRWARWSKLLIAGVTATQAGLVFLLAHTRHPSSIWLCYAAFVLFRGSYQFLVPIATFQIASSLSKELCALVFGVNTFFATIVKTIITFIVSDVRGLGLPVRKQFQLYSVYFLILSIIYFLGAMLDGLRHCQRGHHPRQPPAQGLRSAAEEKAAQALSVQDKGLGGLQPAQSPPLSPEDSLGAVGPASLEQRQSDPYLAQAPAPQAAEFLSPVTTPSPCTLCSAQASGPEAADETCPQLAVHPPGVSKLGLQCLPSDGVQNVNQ

Cc1nc2ccc(CN(C)c3ccc(C(=O)N[C@@H](CCC(=O)O)C(=O)O)s3)cc2c(=O)[nH]1 [RTX]
Km [1]: 1 to 2 µM

CC(=O)O[C@H]1C(=O)[C@@]2(C)[C@H]([C@H](OC(=O)c3ccccc3)[C@]3(O)C[C@H](OC(=O)[C@H](O)[C@@H](NC(=O)c4ccccc4)c4ccccc4)C(C)=C1C3(C)C)[C@]1(OC(C)=O)CO[C@@H]1C[C@@H]2O [TOL]
partial responses [2]: 22.5%

C[C@@H]1CN(CCCn2c3ccccc3c3ccccc32)C[C@H](C)N1 [rimcazole]
cell death induction (tumour cell lines): induce programmed cell death

CC(C)CC[C@@H](O)[C@](C)(O)[C@H]1CC[C@@]2(O)C3=CC(=O)[C@]4(O)C[C@@H](O)[C@@H](O)C[C@]4(C)[C@H]3[C@H](O)C[C@]12C [MA, Muristerone A]
TPMT activity at optimal induction (TPMT): 2.7 nmol/hr/mg of protein

COc1cc2c(c(OC)c1OC)-c1ccc(OP(=O)(O)O)cc1[C@@H](NC(C)=O)CC2 [ZD6126]
increased permeability of cell monolayers (HUVECs [3]): 20-30% | concentrations at which toxicity/antiproliferative effects occur (HUVECs [4]): > 100 M

CC[C@@]1(O)C(=O)OCc2c1cc1n(c2=O)Cc2cc3c(CN(C)C)c(O)ccc3nc2-1 [topotecan]
tumour response (H69 SCLC xenografts): only slowed the tumour growth rate

COc1cc2c(Nc3ccc(Br)cc3F)ncnc2cc1OCC1CCN(C)CC1 [ZD6474]
tumour volume after re-treatment [5]: ~ 0.2 cm3

CCc1cc2c(cc1OS(N)(=O)=O)CCC1C2CCC2(C)C(=O)CCC12 (stereo not shown) [2-EtEMATE, 2-Ethylestrone-3-O-Sulfamate]
fold more potent than parent compounds (breast cancer cell lines [6]): > 10 fold | effect on tubulin assembly (tubulin): inhibited the ability of paclitaxel to promote tubulin assembly

CCCCS(=N)(=O)CCC(N)C(=O)O (stereo not shown) [BSO, buthionine sulfoximine]
peak plasma levels [7]: 3,000-8,000 M

COc1cc2c(cc1O)CC[C@@H]1[C@@H]2CC[C@]2(C)C(=O)CC[C@@H]12 [2-MeOE1, 2-Methoxyestrone]
G2/M arrest in breast cancer cells in vitro (breast cancer cell lines [8]): did not

C#CCN(Cc1ccc2nc(N)[nH]c(=O)c2c1)c1ccc(C(=O)NC(CCC(=O)O)C(=O)O)cc1 (stereo not shown) [CB3717]
Km [1]: 43 µM

O=c1cc(N2CCOCC2)oc2c(-c3ccccc3)cccc12 [LY294002]
rate of migration [9]: 9.8 m/hr and 11.8 m/hr and 10.3 m/hr | S-phase fraction (MT1.2): 84 % of the control value and 43 % of the control value

O=C1CCC(N2C(=O)c3ccccc3C2=O)C(=O)N1 (stereo not shown) [Thalidomide]
objective responses (metastatic melanoma (MM)): no objective responses

Source: publication PMC2363545 (British Journal of Cancer, 2000)
